Experimental data published in ChEMBL document CHEMBL4190249, “Antiproliferative and apoptotic activities of sequence-specific histone acetyltransferase inhibitors” (Eur J Med Chem, 2017).

Protein sequences, listed by entry. Tags and fused reporters are not part of them.
UniProt Q09472, whole entry: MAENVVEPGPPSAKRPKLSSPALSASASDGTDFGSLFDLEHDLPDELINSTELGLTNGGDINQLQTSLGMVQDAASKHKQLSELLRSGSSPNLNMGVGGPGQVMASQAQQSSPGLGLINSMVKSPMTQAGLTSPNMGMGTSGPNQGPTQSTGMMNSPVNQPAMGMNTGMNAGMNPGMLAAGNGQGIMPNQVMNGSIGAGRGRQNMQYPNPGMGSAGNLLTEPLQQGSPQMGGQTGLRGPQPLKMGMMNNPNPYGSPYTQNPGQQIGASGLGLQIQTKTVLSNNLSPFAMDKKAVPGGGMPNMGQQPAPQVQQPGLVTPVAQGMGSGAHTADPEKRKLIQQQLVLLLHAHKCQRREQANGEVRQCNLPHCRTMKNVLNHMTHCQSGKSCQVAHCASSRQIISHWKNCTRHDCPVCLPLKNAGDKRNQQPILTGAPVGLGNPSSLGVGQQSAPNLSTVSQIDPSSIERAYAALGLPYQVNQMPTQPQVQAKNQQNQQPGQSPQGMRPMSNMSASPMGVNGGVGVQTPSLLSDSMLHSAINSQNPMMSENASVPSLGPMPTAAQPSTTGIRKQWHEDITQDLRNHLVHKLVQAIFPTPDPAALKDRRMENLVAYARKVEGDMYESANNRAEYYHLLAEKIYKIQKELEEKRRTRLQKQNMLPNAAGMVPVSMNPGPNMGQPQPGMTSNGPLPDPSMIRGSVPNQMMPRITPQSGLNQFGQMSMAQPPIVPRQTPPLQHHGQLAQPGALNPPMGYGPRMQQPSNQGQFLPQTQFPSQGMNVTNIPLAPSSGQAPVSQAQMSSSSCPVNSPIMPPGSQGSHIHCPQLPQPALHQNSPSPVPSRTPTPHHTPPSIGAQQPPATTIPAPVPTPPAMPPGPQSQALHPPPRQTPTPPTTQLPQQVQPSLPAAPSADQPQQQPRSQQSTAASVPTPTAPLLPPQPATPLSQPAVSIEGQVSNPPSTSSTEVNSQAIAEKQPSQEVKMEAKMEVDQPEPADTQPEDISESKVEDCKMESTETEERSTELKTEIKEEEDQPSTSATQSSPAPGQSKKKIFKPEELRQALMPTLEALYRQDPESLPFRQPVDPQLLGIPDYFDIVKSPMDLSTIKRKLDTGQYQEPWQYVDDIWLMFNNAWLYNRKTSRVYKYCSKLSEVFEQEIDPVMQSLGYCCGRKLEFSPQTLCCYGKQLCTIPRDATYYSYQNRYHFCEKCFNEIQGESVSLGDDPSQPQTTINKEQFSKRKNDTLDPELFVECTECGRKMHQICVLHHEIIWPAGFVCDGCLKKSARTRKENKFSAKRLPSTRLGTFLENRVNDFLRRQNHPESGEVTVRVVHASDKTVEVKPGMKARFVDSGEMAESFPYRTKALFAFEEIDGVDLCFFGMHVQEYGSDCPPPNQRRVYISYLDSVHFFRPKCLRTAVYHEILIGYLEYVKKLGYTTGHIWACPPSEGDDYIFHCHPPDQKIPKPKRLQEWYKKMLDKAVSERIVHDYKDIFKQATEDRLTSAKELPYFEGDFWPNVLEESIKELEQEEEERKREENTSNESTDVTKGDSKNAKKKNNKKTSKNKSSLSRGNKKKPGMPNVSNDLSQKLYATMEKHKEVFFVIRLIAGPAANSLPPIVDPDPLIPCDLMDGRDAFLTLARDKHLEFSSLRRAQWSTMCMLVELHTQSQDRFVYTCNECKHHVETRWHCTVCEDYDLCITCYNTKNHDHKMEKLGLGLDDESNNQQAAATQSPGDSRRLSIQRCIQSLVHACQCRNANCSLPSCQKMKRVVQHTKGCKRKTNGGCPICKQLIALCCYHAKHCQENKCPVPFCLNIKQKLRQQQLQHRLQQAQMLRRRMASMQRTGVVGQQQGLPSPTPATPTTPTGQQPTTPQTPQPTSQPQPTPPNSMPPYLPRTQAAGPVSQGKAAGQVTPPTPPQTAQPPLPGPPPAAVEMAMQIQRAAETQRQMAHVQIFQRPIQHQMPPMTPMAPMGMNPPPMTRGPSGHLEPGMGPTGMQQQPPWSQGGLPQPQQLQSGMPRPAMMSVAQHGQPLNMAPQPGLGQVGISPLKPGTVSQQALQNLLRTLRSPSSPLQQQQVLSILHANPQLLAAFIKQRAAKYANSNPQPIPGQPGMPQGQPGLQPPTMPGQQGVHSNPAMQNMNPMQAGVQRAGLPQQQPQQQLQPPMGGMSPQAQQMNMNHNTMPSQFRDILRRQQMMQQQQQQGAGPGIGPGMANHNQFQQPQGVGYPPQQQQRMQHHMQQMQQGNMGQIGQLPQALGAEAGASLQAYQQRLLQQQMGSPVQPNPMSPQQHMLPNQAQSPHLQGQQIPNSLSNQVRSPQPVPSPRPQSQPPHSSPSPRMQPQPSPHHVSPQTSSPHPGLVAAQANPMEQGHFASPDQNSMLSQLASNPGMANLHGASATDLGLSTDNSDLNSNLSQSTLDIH

Target: Histone acetyltransferase p300 (Homo sapiens, UniProt Q09472)
Test: Inhibition of p300 (unknown origin)

**Q.** How did the INH turn out when CCCCCCCCCCCCCCCc1cccc(O)c1C(=O)O was run?
**A.** 8.5 µM
